Experimental data reported in patent publication EP4675276A1.

Amino acid sequences for entries named in this document (tags omitted). Residues count along the entry.
UniProt P69905, 2-142, chain 1 of 2: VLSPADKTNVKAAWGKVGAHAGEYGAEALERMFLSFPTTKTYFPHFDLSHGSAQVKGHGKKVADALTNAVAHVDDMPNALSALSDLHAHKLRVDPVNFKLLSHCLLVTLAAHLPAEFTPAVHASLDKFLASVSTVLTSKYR

Tests used:
human hemoglobin (human) [1] = target: human hemoglobin (human) (UniProt P69905); experiment: OC-Hemodia Auto III immunoassay, Hb 6.2 pmol/mL, Hpt 3.1 pmol/mL (0.5 Unit), no stool, initial value
human hemoglobin (human) [2] = target: human hemoglobin (human) (UniProt P69905); experiment: OC-Hemodia Auto III immunoassay, Hb 9.3 pmol/mL, Hpt 2.325 pmol/mL (0.25 Unit), 0.5% feces, initial value
human hemoglobin (human) [3] = target: human hemoglobin (human) (UniProt P69905); experiment: OC-Hemodia Auto III immunoassay, Hb 6.2 pmol/mL, Hpt 6.2 pmol/mL (1 Unit), no stool, initial value
human hemoglobin (human) [4] = target: human hemoglobin (human) (UniProt P69905); experiment: OC-Hemodia Auto III immunoassay, Hb 6.2 pmol/mL, Hpt 0.775 pmol/mL (0.125 Unit), no stool, initial value
human hemoglobin (human) [5] = target: human hemoglobin (human) (UniProt P69905); experiment: cell-based or functional assay
human hemoglobin (human) [6] = target: human hemoglobin (human) (UniProt P69905); experiment: OC-Hemodia Auto III immunoassay, Hb 9.3 pmol/mL, Hpt 4.65 pmol/mL (0.5 Unit), 0.5% feces, initial value
human hemoglobin (human) [7] = target: human hemoglobin (human) (UniProt P69905); experiment: OC-Hemodia Auto III immunoassay, Hb 6.2 pmol/mL, Hpt 1.55 pmol/mL (0.25 Unit), no stool, initial value
human hemoglobin (human) [8] = target: human hemoglobin (human) (UniProt P69905); experiment: OC-Hemodia Auto III immunoassay, Hb 6.2 pmol/mL, Hpt 12.4 pmol/mL (2 Unit), no stool, initial value
human hemoglobin (human) [9] = target: human hemoglobin (human) (UniProt P69905); experiment: OC-Hemodia Auto III immunoassay, Hb 9.3 pmol/mL, Hpt 9.3 pmol/mL (1 Unit), 0.5% feces, initial value

| Ratio to no Hpt addition (%) (human hemoglobin (human) [1]) | Ratio to no Hpt addition (%) (human hemoglobin (human) [2]) | Ratio to no Hpt addition (%) (human hemoglobin (human) [3]) | Ratio to no Hpt addition (%) (human hemoglobin (human) [4]) | Residual Hb ratio (%), 37°C 7 days, Hpt 0.775 pmol/mL (0.125 Unit), no stool (human hemoglobin (human) [5]) | Residual Hb ratio (%), 37°C 7 days, Hpt 1.55 pmol/mL (0.25 Unit), no stool (human hemoglobin (human) [5]) | Residual Hb ratio (%), 37°C 7 days, Hpt 2.325 pmol/mL (0.25 Unit), 0.5% feces (human hemoglobin (human) [5]) | Residual Hb ratio (%), 37°C 7 days, Hpt 3.1 pmol/mL (0.5 Unit), no stool (human hemoglobin (human) [5]) | Residual Hb ratio (%), 37°C 7 days, Hpt 4.65 pmol/mL (0.5 Unit), 0.5% feces (human hemoglobin (human) [5]) | Residual Hb ratio (%), 37°C 7 days, Hpt 6.2 pmol/mL (1 Unit), no stool (human hemoglobin (human) [5]) | Residual Hb ratio (%), 37°C 7 days, Hpt 9.3 pmol/mL (1 Unit), 0.5% feces (human hemoglobin (human) [5]) | Residual Hb ratio (%), 37°C 14 days, Hpt 0.775 pmol/mL (0.125 Unit), no stool (human hemoglobin (human) [5]) | Residual Hb ratio (%), 37°C 14 days, Hpt 1.55 pmol/mL (0.25 Unit), no stool (human hemoglobin (human) [5]) | Residual Hb ratio (%), 37°C 14 days, Hpt 2.325 pmol/mL (0.25 Unit), 0.5% feces (human hemoglobin (human) [5]) | Residual Hb ratio (%), 37°C 14 days, Hpt 3.1 pmol/mL (0.5 Unit), no stool (human hemoglobin (human) [5]) | Residual Hb ratio (%), 37°C 14 days, Hpt 4.65 pmol/mL (0.5 Unit), 0.5% feces (human hemoglobin (human) [5]) | Residual Hb ratio (%), 37°C 14 days, Hpt 6.2 pmol/mL (1 Unit), no stool (human hemoglobin (human) [5]) | Residual Hb ratio (%), 37°C 14 days, Hpt 9.3 pmol/mL (1 Unit), 0.5% feces (human hemoglobin (human) [5]) | residual Hb ratio, 1 Unit of Hpt, 37°C 7 days, no stool (human hemoglobin (human) [5]) | Ratio to no Hpt addition (%) (human hemoglobin (human) [6]) | Substance | also measured |
| --- | --- | --- | --- | --- | --- | --- | --- | --- | --- | --- | --- | --- | --- | --- | --- | --- | --- | --- | --- | --- | --- |
| 93% | 99% | 82% | 99% | 48% | 55% | 23% | 62% | 43% | 94% | 82% | 23% | 35% | 18% | 50% | 40% | 95% | 80% | > 70% | 93% | Human dHpt (PNGase) (from UniProt P00738 19-406) | Residual Hb ratio (%), 37°C 7 days, Hpt 12.4 pmol/mL (2 Unit), no stool (human hemoglobin (human) [5]): 100%; Residual Hb ratio (%), 37°C 14 days, Hpt 12.4 pmol/mL (2 Unit), no stool (human hemoglobin (human) [5]): 101%; Ratio to no Hpt addition (%) (human hemoglobin (human) [7]): 94%; Ratio to no Hpt addition (%) (human hemoglobin (human) [8]): 47%; Ratio to no Hpt addition (%) (human hemoglobin (human) [9]): 87% |
| 88% | 98% | 68% | 97% | 49% | 56% | 21% | 71% | 36% | 96% | 68% | 28% | 41% | 17% | 67% | 32% | 101% | 66% | > 70% | 97% | Equine dHpt (PNGase) | Ratio to no Hpt addition (%) (human hemoglobin (human) [7]): 92%; Ratio to no Hpt addition (%) (human hemoglobin (human) [9]): 92% |
